Reference: US20160184287A1

Sequences of proteins named here, by UniProt entry; tags and fusion partners are left off. Residues count along the entry.
UniProt Q03431, 27-593: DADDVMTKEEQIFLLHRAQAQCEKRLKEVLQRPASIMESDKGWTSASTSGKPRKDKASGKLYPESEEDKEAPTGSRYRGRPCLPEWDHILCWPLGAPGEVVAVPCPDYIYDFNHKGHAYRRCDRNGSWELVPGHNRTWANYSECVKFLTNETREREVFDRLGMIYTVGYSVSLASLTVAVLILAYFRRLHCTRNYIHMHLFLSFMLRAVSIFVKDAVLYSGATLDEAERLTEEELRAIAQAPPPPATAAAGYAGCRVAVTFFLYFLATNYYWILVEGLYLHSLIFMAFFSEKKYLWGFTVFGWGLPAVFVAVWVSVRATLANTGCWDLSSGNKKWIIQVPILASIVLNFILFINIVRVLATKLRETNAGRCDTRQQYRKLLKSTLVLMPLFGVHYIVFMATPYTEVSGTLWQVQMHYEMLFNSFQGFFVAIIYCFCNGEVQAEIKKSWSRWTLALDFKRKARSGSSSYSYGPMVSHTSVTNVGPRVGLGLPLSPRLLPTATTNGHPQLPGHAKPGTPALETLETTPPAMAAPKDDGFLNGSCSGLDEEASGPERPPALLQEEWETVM

Target: PTHrP receptor (human) (UniProt Q03431)
Test: radioligand binding assay (fmol per 90 min per mg protein), nicotine-treated vs. control, n=6

decrease in PTHrP binding to its receptor after nicotine treatment vs. control: 30%
Substance: [125I]-Tyr34-PTHrP-(1-34) (from UniProt P12272 37-70) (peptide)
